According to article PMC6287539 (International Journal for Parasitology: Drugs and Drug …, 2018):

How the values were obtained:
[1] = target: T1, Hco-ACC-2 (homomeric channel) (Haemonchus contortus, UniProt A0A219KWM7); test: two-electrode voltage clamp in Xenopus oocytes, dose-response; type: cell-based
T1 sequence (A0A219KWM7 18-443): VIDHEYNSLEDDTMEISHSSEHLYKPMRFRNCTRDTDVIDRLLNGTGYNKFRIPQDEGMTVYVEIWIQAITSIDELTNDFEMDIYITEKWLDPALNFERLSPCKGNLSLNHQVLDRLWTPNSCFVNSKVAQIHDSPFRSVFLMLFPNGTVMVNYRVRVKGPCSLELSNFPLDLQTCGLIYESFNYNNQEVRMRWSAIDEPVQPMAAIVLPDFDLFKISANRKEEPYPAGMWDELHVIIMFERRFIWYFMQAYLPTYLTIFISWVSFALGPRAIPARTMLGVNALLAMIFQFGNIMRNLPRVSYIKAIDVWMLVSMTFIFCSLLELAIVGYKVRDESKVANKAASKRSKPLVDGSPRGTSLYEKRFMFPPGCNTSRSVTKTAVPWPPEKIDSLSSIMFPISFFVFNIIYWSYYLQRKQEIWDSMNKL

[2] = target: T2, Hco-ACC-1 (in the Hco-ACC-1/2 heteromeric channel) (Haemonchus contortus, UniProt A0A219KVV5+A0A219KWM7); test: as above; type: cell-based
T2 sequence (A0A219KVV5 23-459): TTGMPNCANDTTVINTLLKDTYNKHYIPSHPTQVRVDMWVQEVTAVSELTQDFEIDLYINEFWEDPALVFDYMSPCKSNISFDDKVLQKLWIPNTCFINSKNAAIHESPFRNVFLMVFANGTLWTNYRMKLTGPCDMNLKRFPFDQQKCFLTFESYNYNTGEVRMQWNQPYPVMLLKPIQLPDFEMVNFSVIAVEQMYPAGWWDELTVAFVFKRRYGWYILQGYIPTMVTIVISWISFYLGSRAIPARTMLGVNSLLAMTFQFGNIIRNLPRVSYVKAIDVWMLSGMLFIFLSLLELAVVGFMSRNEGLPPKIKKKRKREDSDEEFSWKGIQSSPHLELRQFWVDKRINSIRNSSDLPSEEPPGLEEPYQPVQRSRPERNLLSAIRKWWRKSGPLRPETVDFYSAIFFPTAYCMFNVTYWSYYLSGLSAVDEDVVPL
T2 sequence (A0A219KWM7 18-443): T1 sequence (A0A219KWM7 18-443)

SMILES: CC(=O)OCC[N+](C)(C)C [acetylcholine]
- EC50 [1]: 19 ± 1 µM
- EC50 [2]: 5.9 ± 1 µM
